Consider 1 compound from ChEMBL document CHEMBL3808325, “Discovery and Optimization of Macrocyclic Quinoxaline-pyrrolo-dihydropiperidinones as Potent Pim-1/2 Kinase Inhibitors” (ACS Med Chem Lett, 2016).

Sequences of proteins named here, by UniProt entry; tags and fusion partners are left off.
UniProt P11309, whole entry: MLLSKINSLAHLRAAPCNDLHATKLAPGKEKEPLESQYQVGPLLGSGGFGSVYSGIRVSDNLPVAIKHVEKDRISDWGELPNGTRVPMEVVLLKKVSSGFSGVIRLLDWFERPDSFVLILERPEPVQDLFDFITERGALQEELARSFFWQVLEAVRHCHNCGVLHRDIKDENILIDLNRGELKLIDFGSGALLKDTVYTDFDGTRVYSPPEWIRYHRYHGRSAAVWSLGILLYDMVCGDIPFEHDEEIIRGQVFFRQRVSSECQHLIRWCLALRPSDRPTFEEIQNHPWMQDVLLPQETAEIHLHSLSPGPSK

In the assay the target is Serine/threonine-protein kinase pim-1 (Homo sapiens, UniProt P11309). The assay can be described thus: Inhibition of human full-length Pim1 expressed in Escherichia coli assessed as phosphorylation of biotinylated BAD peptide at Ser-112 preincubated for 30 mins followed by substrate addition measured after 1 hr by HTRF assay. The method, boiled down:
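Cell-free kinase assay using recombinant Pim-1 or Pim-2. Read-out is phosphorylation of a short BAD peptide sequence spanning Ser-112.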
In general terms: Time-resolved FRET reads energy transfer from a long-lived donor to a nearby acceptor.

The IC50 is the concentration needed to halve the response being measured. Turning to `CCCNc1nc2c(-c3cc4c([nH]3)CCNC4=O)cccc2nc1C`, the IC50 turned out to be 5 nM.
